Experimental data: patent US20230000797A1, “COMPOSITIONS AND METHODS FOR TREATING MOTOR DISORDERS” (ARIZONA BOARD OF REGENTS ON BEHALF OF THE UNIVERSITY OF …, priority 2015, published 2023)

System: unilaterally 6-OHDA-lesioned LID rats
Experiment: L-DOPA-induced AIMs in the preclinical rat LID model (10 hr ketamine 'infusion' paradigm or acute injection)
Conditions: cohort #1 severe LID; 5 mg/kg ketamine-'infusion' (5 x i.p. two hrs apart); 7 mg/kg L-DOPA

CNC1(c2ccccc2Cl)CCCCC1=O (racemic) [ketamine, (RS)-2-(2-Chlorophenyl)-2-(methylamino)cyclohexanone]
reduction of the AIMs score lasted (post-injection, before baseline reached again): 7 days
